The entries are a selection whose mix differs from that of the whole data set. The source made the active and inactive calls.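 The calls were made as follows: active = growth inhibition above a set limit, 3 SD over mean compound inhibition, in both replicates (cut at about 43% in these data); inconclusive = above the limit in only one replicate; inactive = at or below the limit in both replicates.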

This experiment can be described thus: S. cerevisiae growth inhibition in restrictive medium, OD615, pilot screen, restrictive growth control, yeast lifespan reduction project (AID 706).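 Also: modified DeaD lifespan yeast strain shifted to restrictive glucose medium.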 Conditions: OD615, 48 h, at 10 µM, stronger effect = higher value. In outline:
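Material: modified S. cerevisiae; Medium: glucose-based CSMM-D restrictive medium; Compound dosing: one concentration, 10 µM final, 0.25% DMSO; Incubation: 48 h compound exposure at 30 °C; Measured by: OD615.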
Take `Cc1ccc(C)c(NP(C)(=O)Oc2ccccc2)c1` (stereo not given): the growth inhibition was inactive: -16.2%.

Consider `CP(=O)(NC(=O)Nc1ccccc1)Oc1ccccc1` (stereo not given), for which the growth inhibition was inactive: -15.4%.

With `Cc1ccc(NP(C)(=O)Oc2ccccc2)c(C)c1` (stereo not given), the growth inhibition was inactive: -1.1%.

In the case of `CP(=O)(Oc1ccccc1)N1CCOC1=O` (stereo not given), the growth inhibition was inactive: -16.2%.

For `CP(=O)(Nc1ccc2c(c1)OCCO2)Oc1ccccc1` (stereo not given), the growth inhibition is inactive: -2.07%.

The values above are taken from PubChem BioAssay AID706 (SRMLSC, 2007).
